From DBAASP
In brackets after ≈: the same amount, converted by molar mass.

What was measured:
[1] = system: Erwinia amylovora PMV 6076; assay: ≥ marks a high value that may be exact or a test limit, other limits are often not marked, values filed in µg/mL are converted to µM
[2] = system: Pseudomonas syringae pv. syringae EPS 94; assay: as above

SMILES: CC[C@H](C)[C@H](NC(=O)[C@H](CC(C)C)NC(=O)[C@H](C)NC(=O)[C@@H]1CCCN1C(=O)[C@H](CC(C)C)NC(=O)CNC(=O)[C@@H](NC(=O)[C@@H](NC(=O)[C@H](C)NC(=O)[C@@H]1CCCN1C(=O)CNC(=O)[C@H](C)NC(=O)[C@H](CC(C)C)NC(=O)[C@H](Cc1ccc(O)cc1)NC(=O)[C@H](CCCCN)NC(=O)[C@H](CC(C)C)NC(=O)[C@@H](NC(=O)[C@H](CCCCN)NC(=O)[C@H](CCCCN)NC(=O)[C@H](Cc1ccccc1)NC(=O)[C@H](CC(C)C)NC(=O)[C@H](CCCCN)NC(=O)[C@H](CCCCN)NC(=O)[C@@H](N)CO)[C@@H](C)CC)[C@@H](C)O)[C@@H](C)O)C(=O)N[C@@H](CO)C(=O)N[C@@H](Cc1c[nH]c2ccccc12)C(=O)O [SKKLFKKILKYLAGPATTGLPALISW]
- MIC [1]: 1.77 µM (≈ 5.03 µg/mL)
- MIC [2]: 1.77 µM (≈ 5.03 µg/mL)
